For the assay, the target named is PPAR alpha/gamma (Homo sapiens) (UniProt P37231+Q07869). Kind of assay: Agonist activity at PPARalpha/PPARgamma in human AT-MSC cells assessed as upregulation of ACAT1 mRNA at 10 uM incubated for 3 days by qRT-PCR analysis. Format: cell-based. The settings on record: Adipose tissue derived mesenchymal stem cell, filed as agonist, time 3.0 day. (Quantitative PCR measures a nucleic acid by following its amplification.)

Amino acid sequences for entries named in this document (tags omitted). A change or cut given only in a name is not applied to a line headed by its entry.
UniProt P37231: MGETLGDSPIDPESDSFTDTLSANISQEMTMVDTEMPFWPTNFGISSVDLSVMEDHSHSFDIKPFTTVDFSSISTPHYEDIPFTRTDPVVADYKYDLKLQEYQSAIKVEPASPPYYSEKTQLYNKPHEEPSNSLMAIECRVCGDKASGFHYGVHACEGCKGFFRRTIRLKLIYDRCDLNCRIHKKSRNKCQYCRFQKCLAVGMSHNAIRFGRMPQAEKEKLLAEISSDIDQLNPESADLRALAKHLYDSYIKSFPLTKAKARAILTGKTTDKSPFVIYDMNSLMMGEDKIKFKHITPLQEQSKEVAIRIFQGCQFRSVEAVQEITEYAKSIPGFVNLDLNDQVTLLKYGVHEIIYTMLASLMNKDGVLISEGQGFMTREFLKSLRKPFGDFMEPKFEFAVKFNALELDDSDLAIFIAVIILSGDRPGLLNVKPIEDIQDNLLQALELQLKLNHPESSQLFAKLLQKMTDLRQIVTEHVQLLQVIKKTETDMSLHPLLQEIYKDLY
UniProt Q07869: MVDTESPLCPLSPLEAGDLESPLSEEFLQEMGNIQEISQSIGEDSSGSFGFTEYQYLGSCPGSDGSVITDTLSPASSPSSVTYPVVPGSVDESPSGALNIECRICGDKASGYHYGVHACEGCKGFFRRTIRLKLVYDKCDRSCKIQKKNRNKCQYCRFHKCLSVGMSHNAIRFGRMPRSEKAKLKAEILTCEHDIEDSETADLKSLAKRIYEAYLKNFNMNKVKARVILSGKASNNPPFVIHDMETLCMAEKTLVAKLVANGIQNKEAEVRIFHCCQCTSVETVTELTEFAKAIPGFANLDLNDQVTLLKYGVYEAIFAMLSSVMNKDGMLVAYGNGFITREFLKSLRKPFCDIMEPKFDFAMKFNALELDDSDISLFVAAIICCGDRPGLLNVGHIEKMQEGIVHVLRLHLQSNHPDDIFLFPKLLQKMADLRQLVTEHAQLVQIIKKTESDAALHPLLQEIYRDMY

Each structure is given as a SMILES string.

In ChEMBL document CHEMBL4673218, “Kojyl cinnamate esters are peroxisome proliferator-activated receptor α/γ dual agonists” (Bioorg Med Chem, 2018) one finds fold change (FC) data, which are given here for two compounds.

For the compound `COc1ccc(OC)c(/C=C/C(=O)OCc2cc(=O)c(O)co2)c1`, the fold change (FC) was found to be 2.5. On to `COc1cccc(/C=C/C(=O)OCc2cc(=O)c(O)co2)c1OC`, for which the fold change (FC) is 1.91.
